Target: T1, human α1R271Q-GlyR expressed in HEK 293 cells (Homo sapiens, UniProt P23415, R299Q)
T1 sequence (P23415 29-457 R299Q): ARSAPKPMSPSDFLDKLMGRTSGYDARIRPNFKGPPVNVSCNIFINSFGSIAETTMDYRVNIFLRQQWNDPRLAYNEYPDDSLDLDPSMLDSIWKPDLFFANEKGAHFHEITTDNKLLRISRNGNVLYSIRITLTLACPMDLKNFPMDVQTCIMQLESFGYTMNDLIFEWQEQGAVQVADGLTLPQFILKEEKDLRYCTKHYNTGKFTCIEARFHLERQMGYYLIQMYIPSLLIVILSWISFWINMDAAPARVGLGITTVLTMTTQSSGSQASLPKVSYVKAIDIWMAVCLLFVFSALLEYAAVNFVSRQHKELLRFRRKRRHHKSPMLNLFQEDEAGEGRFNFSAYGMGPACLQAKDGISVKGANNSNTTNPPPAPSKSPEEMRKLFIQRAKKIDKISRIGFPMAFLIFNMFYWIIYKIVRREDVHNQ
Details: R271Q; saturating glycine 300 mM
Source text: Human α1-, α1R271Q-, α1R271L-, α1R271K and α1S267I-GlyR subunits were transiently transfected into human embryonic kidney cells (HEK 293, ATCC, Manassas, USA). The wild type α1-GlyR -cDNA was cloned in pCIS2 (Invitrogen, San Diego, USA) vector and provided by Prof. Heinrich Betz (Max-Planck-Institut für Hirnforschung, Frankfurt am Main, Germany). For the plasmid cDNA of the mutated α1R271Q-, α1R271L-, α1R271K- and α1S267I-GlyR the eukaryotic expression vector pcDNA1amp (Invitrogen, San Diego, USA), under the control of cytomegalovirus promoter, was used. For site-directed mutagenesis, single stranded template cDNA was synthesized from M13 origin of replication and the mutations of arginine residue (R) at position 271 to glutamine (R271Q), leucine (R271L) or lysine (R271K) and mutation of serine residue (S) at position 267 to isoleucine (S267I) were generated using standard procedures. […]
Whole-cell experiments were performed at a holding potential of −30 mV with a mean seal resistance of 1 GΩ. […] We calculated flow rate of background solution through the chamber with 3,4 ml/min corresponding to 4% of maximal pump rate. With regard to the chamber volume of 100 μl the exchange solution time within the chamber was assessed to approximately […], dependent on cell size accordingly. […]

NCC(=O)O [glycine]
Mean current amplitude ± SEM: 123±19 pA
